Values of other authors as cited in US20090222938A1, “Therapeutic Target Molecules For The Development of Novel Medicaments for Degenerative Diseases” (Neuroprofile GMBH, priority 2006, published 2009).

Test system: ALS
Details: ALS patients, symptomatic therapy; cited from earlier work

In the case of `Nc1nc2ccc(OC(F)(F)F)cc2s1` [riluzol], the “extension of the survival life time” value is given as 2 months.
